A short description of this data set: Loading (encapsulation) efficiency of BMP-2 in porous microspheres, protein assay after crushing and incubating in water. The class given is physicochemical. The following applies: EGDMA/PGPR/DMPA porous microspheres about 800 micrometer in diameter, average pore size 14 micrometers; compared to theoretical maximum. As for the experimental part:
While a biologic substance (recombinant human bone morphogenetic protein-2 (BMP-2), 5000 ng) in water (1.5 mL) was the aqueous phase. The two phases were mixed as described herein to form a first emulsion and then provided drop wise to a second component, thereby fabricating porous microspheres. In one example, these porous microspheres were formed to be about 800 micrometer in diameter. Loading efficiency of the BMP-2 was determined by crushing the microspheres and then incubating in 3 mL deionized water while agitating, for about 15 hours in small containers (e.g., 15 mL tubes). After agitation, the crushed particles were collected at a high speed in the incubating containers, the incubating liquid was removed and saved, and the particles were introduced to additional water as before. Protein concentrations in the collected liquids, when combined, was measured using a seven point calibration curve, and the amount encapsulated was compared to a theoretical maximum based on HIPE (or MIPE) concentration. […] The protein encapsulation had little effect on particle size and microarchitecture. […] Without being bound by theory, the increased encapsulation efficiency may be associated both with the physical entrapment of the molecules and possible adsorption onto the microsphere pore walls. […]

Consider “BMP-2: recombinant human bone morphogenetic protein-2 encapsulated in EGDMA/PGPR porous microspheres”, for which the encapsulation efficiency is recorded as 73%±3%.
